Values quoted from earlier work, collected in paper PMC7012964, “Biopharmaceutical Understanding of Excipient Variability on Drug Apparent Solubility Based on Drug Physicochemical Properties. Case Study: Superdisintegrants” (The AAPS Journal, 2020).

Details: ref (20), (22), (23), (25), DrugBank, (28), (31), (33); cited from earlier work

Compound: CN(C)C(=N)N=C(N)N [MTF, Metformin]
- Ionization (type): Weak base
